By UniProt entry, the sequences of proteins in these tests, tags left out.
UniProt P21917, whole entry: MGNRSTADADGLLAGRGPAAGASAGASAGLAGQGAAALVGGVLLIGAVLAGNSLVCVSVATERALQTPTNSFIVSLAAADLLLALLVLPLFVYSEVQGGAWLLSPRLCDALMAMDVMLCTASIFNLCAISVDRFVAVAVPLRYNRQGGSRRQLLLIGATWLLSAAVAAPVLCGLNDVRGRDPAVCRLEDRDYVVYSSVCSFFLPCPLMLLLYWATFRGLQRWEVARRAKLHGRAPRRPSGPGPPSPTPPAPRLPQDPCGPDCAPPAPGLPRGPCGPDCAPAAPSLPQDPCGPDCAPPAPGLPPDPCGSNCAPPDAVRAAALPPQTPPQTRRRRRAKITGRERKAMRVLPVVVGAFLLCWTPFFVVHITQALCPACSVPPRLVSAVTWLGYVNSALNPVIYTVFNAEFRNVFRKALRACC

According to ChEMBL document CHEMBL1132537, “A series of 6- and 7-piperazinyl- and -piperidinylmethylbenzoxazinones with dopamine D4 antagonist activity: discovery of a potential atypical antipsychotic agent” (J Med Chem, 1999):

These compounds were tested against D(4) dopamine receptor (Homo sapiens, UniProt P21917) (assay: biochemical).

Row | Compound | Ki [nM]
1 | Cc1ccc(N2CCN(Cc3ccc4c(c3)OCC(=O)N4)CC2)cc1 | 10.7
2 | Cc1ccc(N2CCN(Cc3ccc4c(c3)NC(=O)CO4)CC2)cc1C | 5.1
3 | Cc1ccc(N2CCN(Cc3ccc4c(c3)OCC(=O)N4)CC2)cc1C | 6.9

Further compounds by falling Ki, results first:

Row | Ki [nM] | Compound
4 | 12.3 | COc1ccc(N2CCN(Cc3ccc4c(c3)NC(=O)CO4)CC2)cc1
5 | 3.8 | COc1ccc(C2CCN(Cc3ccc4c(c3)NC(=O)CO4)CC2)cc1
